This note sets out measurements from patent publication US6187793A, “7-[(Piperidin-1-YL)-Propoxy]-chromen-4-one derivatives, their preparation and their pharmaceutical use” (Ferrer Internacional, S.A., priority 1997, dated 2001).

Amino acid sequences for entries named in this document (tags omitted).
UniProt P31389, whole entry: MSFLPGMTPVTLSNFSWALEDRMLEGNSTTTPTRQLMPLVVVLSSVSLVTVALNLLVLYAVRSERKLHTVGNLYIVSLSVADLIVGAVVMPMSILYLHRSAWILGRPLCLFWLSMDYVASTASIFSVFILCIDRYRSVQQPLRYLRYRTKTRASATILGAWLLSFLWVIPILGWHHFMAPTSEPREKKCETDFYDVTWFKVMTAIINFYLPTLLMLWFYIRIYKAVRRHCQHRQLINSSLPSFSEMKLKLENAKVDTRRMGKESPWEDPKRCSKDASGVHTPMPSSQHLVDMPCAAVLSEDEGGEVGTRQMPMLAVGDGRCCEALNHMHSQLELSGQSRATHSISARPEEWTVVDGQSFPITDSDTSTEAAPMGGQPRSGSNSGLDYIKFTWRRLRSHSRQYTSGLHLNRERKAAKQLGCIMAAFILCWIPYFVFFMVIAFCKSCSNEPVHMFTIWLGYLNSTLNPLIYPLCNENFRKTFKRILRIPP

The target of the assay is histamine H1 receptors (Cavia porcellus, UniProt P31389). Kind of assay: biochemical.

For `CC(CN1c2ccccc2Sc2ccccc21)N(C)C` (stereo not shown) [Promethazine, promethazine, reference compound], the IC50 (commonly the point on the concentration scale where inhibition reaches its midpoint) was 0.893 nM.
